Holding throughout (type): biochemical
Assay [1] deals with T1, Q105M-1 mutant of 3β-HSD1 (Homo sapiens, UniProt P14060, Q106M).
T1 sequence (P14060 1-373 Q106M): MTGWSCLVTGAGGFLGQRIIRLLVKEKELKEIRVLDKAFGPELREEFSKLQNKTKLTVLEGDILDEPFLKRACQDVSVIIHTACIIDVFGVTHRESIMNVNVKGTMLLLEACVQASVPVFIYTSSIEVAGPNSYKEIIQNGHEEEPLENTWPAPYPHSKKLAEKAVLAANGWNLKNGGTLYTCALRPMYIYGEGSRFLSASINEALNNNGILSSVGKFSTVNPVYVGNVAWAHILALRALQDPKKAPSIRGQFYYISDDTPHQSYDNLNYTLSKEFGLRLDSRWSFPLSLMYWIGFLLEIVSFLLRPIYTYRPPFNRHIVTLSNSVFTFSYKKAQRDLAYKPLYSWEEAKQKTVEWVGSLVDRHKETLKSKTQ
Kind of assay: Inhibition of 3β-HSD activity of purified enzyme, Dixon analysis.

Chains of the proteins cited; added tags and fusions are not shown.
UniProt P26439, whole entry Q105M: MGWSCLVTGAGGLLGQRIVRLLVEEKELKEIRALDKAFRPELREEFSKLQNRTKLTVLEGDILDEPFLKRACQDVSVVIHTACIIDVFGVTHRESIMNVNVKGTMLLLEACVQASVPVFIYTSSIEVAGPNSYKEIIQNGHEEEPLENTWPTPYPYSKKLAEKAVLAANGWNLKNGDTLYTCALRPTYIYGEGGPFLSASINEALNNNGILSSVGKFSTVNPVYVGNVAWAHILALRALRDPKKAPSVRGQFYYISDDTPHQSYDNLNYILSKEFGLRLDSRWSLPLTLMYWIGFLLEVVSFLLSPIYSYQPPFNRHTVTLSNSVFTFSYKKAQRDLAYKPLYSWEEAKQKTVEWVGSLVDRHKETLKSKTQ

For assay [2], the target named is T2, Q105M-2 mutant of 3β-HSD2 (Homo sapiens, UniProt P26439, Q105M). The assay is described as above.
In assay [3] the target is T1, Q105M-1 mutant of 3β-HSD1. Description: Michaelis-Menten kinetics of 3β-HSD substrate. The settings on record: Table 4; substrate DHEA 3-100 μM, NAD+ 200 μM, 27° C, pH 7.4.
In assay [4] the target is T2, Q105M-2 mutant of 3β-HSD2. Kind of assay: Michaelis-Menten kinetics of 3β-HSD substrate. The conditions noted are these: Table 4; substrate DHEA 3-100 μM, NAD+ 200 μM, 27° C, pH 7.4.

Structures are written as SMILES.

For `C[C@]1(O)CC[C@H]2[C@@H]3CC[C@@]45O[C@]4(C)C(O)=C(C#N)C[C@]5(C)[C@H]3CC[C@@]21C` [epostane], the Ki in assay [1] worked out at 1840 nM; in assay [2], 1640 nM.

As for `C[C@]12CC[C@H](O)CC1=CC[C@@H]1[C@@H]2CC[C@]2(C)C(=O)CC[C@@H]12` [DHEA, dehydroepiandrosterone], the figures for the 3β-HSD kcat in assay [3] and in assay [4] were 0.113 s⁻¹ and 0.075 s⁻¹, respectively.

The Ki is a dissociation constant, usually derived from enzyme kinetics or from competition with a known ligand.

These data come from PMC2999670 (The Journal of steroid biochemistry and molecular biology, 2010).
